In experiment [1] the target is T1, C-X-C chemokine receptor type 3 (Homo sapiens, UniProt P49682).
T1 sequence (P49682 whole entry): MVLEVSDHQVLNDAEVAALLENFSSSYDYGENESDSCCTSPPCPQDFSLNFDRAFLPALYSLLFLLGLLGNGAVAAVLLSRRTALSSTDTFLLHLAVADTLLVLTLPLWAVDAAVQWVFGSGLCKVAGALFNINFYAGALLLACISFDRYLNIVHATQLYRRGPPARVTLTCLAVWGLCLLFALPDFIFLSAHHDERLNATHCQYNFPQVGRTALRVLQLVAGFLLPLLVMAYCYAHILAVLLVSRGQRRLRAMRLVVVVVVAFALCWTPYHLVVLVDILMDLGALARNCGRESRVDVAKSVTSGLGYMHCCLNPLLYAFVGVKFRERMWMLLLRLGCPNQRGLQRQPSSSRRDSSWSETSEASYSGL
Description: Inhibition of human wild type CXCR3.

By UniProt entry, the sequences of proteins in these tests, tags left out.
UniProt P61073, whole entry: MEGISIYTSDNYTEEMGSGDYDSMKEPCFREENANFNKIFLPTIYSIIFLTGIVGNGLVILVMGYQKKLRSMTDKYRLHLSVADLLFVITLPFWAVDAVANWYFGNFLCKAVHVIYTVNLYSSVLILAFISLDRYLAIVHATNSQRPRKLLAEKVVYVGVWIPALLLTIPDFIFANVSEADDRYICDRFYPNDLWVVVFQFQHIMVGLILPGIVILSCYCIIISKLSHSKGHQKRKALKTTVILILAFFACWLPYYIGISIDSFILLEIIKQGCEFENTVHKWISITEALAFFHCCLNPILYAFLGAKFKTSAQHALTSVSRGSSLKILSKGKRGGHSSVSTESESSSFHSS

Experiment [2] deals with C-X-C chemokine receptor type 4 (Homo sapiens, UniProt P61073). Description: Binding affinity to CXCR4 (unknown origin) assessed as inhibition constant.

One may read the IC50 as the midpoint of a concentration-inhibition curve. Higher therefore signals a need for much substance. Broadly, the Ki is a dissociation constant, usually derived from enzyme kinetics or from competition with a known ligand.

`CCOc1ccc(-n2c(C(C)N(Cc3cccnc3)C(=O)Cc3ccc(OC(F)(F)F)cc3)nc3ncccc3c2=O)cc1` (configuration not stated) had a half-inhibitory concentration (IC50) in experiment [1] of 251 nM.
Regarding `NCCCCN(Cc1nc2ccccc2[nH]1)[C@H]1CCCc2cccnc21` [MAVORIXAFOR], the Ki in experiment [2] was 23 nM.

Values taken from ChEMBL document CHEMBL5260798, “Structural Analysis of Chemokine Receptor-Ligand Interactions” (J Med Chem, 2017).
